# Experimental data: article PMC6441019, “Prospective discovery of small molecule enhancers of an E3 ligase-substrate interaction” (Nature Communications, 2019)
# The chains behind the UniProt entries cited, without tags or fusion partners. Residues count along the entry.
# UniProt P35222, 17-48 S33E/S37A limits assumed: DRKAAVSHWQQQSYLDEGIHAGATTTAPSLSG
# UniProt Q9Y297, 1-569 isoform Q9Y297-2, stated change not applied: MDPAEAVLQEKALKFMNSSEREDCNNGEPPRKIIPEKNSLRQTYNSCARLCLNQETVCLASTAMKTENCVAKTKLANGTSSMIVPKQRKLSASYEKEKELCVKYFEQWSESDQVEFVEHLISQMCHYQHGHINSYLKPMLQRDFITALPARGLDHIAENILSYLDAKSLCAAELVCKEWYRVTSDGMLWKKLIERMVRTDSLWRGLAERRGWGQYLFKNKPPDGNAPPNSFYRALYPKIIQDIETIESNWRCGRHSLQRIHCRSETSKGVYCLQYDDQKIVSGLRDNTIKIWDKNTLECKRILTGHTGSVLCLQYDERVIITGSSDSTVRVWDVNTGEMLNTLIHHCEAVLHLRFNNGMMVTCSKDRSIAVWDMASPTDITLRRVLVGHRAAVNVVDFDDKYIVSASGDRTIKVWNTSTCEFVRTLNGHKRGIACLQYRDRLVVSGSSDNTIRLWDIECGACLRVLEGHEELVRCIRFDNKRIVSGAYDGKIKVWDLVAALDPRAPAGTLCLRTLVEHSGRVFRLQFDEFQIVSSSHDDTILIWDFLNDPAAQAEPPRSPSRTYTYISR
# Target: T1, S33E/S37A β-catenin peptide binding to β-TrCP (Homo sapiens, UniProt P35222+Q9Y297, S33E/S37A)
# T1 construct: titrating BODIPY-FL-labeled β-catenin peptides (residues 17-48) against 300 pM β-TrCP; 6xHis-SMT3 (N, cleaved yes); made in house; host or cells: E. coli (co-expressed with BirA)
# Test: TR-FRET binding enhancement assay, S33E/S37A peptide
# Conditions: 1% binding saturation
# Experimental: Compounds were incubated in a 20 μl reaction volume with 300 pM biotinylated β-TrCP/Skp1 preincubated with 1.2 nM terbium-coupled streptavidin (Cisbio) and BODIPY-FL labeled β-catenin peptides (see figure legends for peptide details) in a white 384-well microplate (Perkin Elmer ProxiPlate), using a PBS buffer containing 0.01% Triton X-100 and 2 mM DTT with 2% final DMSO. […] Following 1-h incubation, plates were read for TR-FRET signal after excitation at 320 nm and read at 520 and 620 nm using an EnVision plate reader (Perkin Elmer). TR-FRET signal was calculated using a 520/620 nm ratio. Binding and enhancement data were fit to a standard Hill equation (Y = Bmin + (Bmax − Bmin)(X^h)/(X^h + EC50^h)) in Prism (GraphPad). Errors are standard error of the fit.
smiles,measurement,value
COc1cc2c(cc1OC)CN(C(=O)c1c(Sc3c(Cl)cccc3Cl)cc(C(F)(F)F)[nH]c1=O)C2 [NRX-252262],EC50,0.53 ± 0.02 µM
